Screens as filed in PubChem BioAssay.
PINK1 modulator: modulators of PINK1 expression. PINK1 immunofluorescence, high-content cytometry, 24 h. Potency, µM (highest dose often 76.6 µM), for the others: at the top dose activation (PINK1 increase), hits mostly activators. 410,000 tested, 0.2% active. AID 624263; active = well fitted activation curve with a large enough effect; inconclusive = small, poorly fitted or top-dose-only effect; cell line not stated here; note: potency is the fitted concentration of half-maximal effect; % of control where 0% means no effect; nearly all actives have a fitted effect of over 65% in size
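Stable cell line treated 24 h with compounds at 5 concentrations (CCCP controls), then fixed and immunostained for PINK1 plus nuclear and cell stains; PINK1 immunofluorescence quantified by laser-scanning microplate cytometry.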
RXFP1 antag: RXFP1 (human) relaxin receptor antagonism; Q9HBX9; HEK293-RXFP1, relaxin-stimulated cAMP HTRF, 30 min; active compounds read low; activity change, negative = inhibition, % at 57.5 µM; 350,000 tested, 0.59% active;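 active = activity change of -60% or lower, but not beyond a set lower limit; inconclusive = change between -60% and -40%, or beyond the set limit; inactive = change above -40%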; note: % is set by controls: 0 for no effect and ±100 for the full control effect
RXFP1 agonist: agonists of human relaxin receptor RXFP1 | HEK293T-RXFP1 cAMP TR-FRET, 30 min; response scale: percent of porcine relaxin response, buffer zero | Potency, µM (titrated, usually from 57.5 µM), for inactives: top-dose activation, actives largely listed as activators | 370,000 tested, 0.3% active | AID 2676; note: potency is the fitted concentration of half-maximal effect; % is set by controls: 0 for no effect and ±100 for the full control effect; nearly all actives have a fitted effect of over 60% in size
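Agonist response is measured as cAMP accumulation in an RXFP1-transfected HEK293T line under PDE4 inhibition. Values are scaled between buffer-only and 29 nM porcine relaxin, and EC50s come from standard Hill equation fits.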
miR-21 reporter: raises the signal of a miR-21 reporter; Potency, µM (doses to about 38.3 µM), inactives show top-dose reporter change, positive = more light; HeLa miR-21 FLuc reporter, luciferase, 48 h; AID 2288; 340,000 tested, under 10 active; active = well fitted rising curve with a large enough effect; inconclusive = small, poorly fitted or top-dose-only effect; inactive = no such curve, though single readings can be large or run the other way;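 further: % of control where 0% means no effect; miR-21 action dims this reporter so a rising signal means less miR-21 action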
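Luminescence from a firefly luciferase reporter carrying a miR-21 binding site downstream, stably expressed under a CMV promoter in HeLa cells that make miR-21 endogenously, reports miRNA modulation after 48 h compound exposure up to approximately 40uM final.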
IL2 activator: activates IL-2 in a cell-based reporter assay | IL-2 activation reporter assay, cell-based qHTS; stimulated with anti-CD3/CD4/CD28 beads; in transgenic mouse T cells | 360,000 tested, 0.065% active | activation, % (series mostly up to about 46 µM); in the data active = activation above about 50%; inconclusive = mostly about 30% to 49%; note: 0% is about no effect
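Screening format: compound pinned onto unstimulated transgenic mouse T cells, 60 min incubation, then anti-CD3/anti-CD4/anti-CD28 bead stimulation for 18 hours at 37 degrees C, followed by EGFP and DsRed detection.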
TCR activator: activates T cell receptor signaling | Potency, µM (top dose mostly 9.22 µM), for inactives: top-dose activation of IL-2 secretion, most hits filed as activators | AID 504894 | primary human leukocytes, anti-CD3, IL-2 HTRF, 48 h | 330,000 tested, under 10 active; note: % of control where 0% means no effect
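Readout: HTRF IL-2, Eu-cryptate/d2 antibody pair, 320nm excitation, 665nm emission. Stimulus: a-CD3 beads, no co-stimulation. Cells: primary human leukocytes. Exposure: 48 hr with compound.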
The depositor's hits bear a star; u = inconclusive; x = no result; [ ] = remark or other dose. Rows were chosen to be rich in hits. Some 0.78% of all compounds tested hit in one or more screens of this group. Unless noted, calls come from the whole dose curve; as a rule, active = well fitted curve in the direction sought with a large enough effect; inconclusive = small, poorly fitted or top-dose-only effect, or another doubt; inactive = no such curve, though single readings can be large; an effect the other way counts as inactive or inconclusive.

Sample of the layout:
SMILES	PINK1 modulator	RXFP1 antag	RXFP1 agonist	miR-21 reporter	IL2 activator	TCR activator
Cc1[nH]nc(-c2ccc(O)c(C)c2O)c1-c1cnn(-c2ccccc2)c1	0%[38.3 µM]	-87*	1%	-8%	2	0%
COc1cnn(-c2ccccc2)c(=O)c1N(C)C	13µM*	-4	1%	-13%	0	x
CC(=O)c1ccc(N(CC(=O)NC2CCCC2)C(=O)c2csnn2)cc1	-3%	-82*	0%	-16%	1	0%

This part in full (from the top)
SMILES	PINK1 modulator	RXFP1 antag	RXFP1 agonist	miR-21 reporter	IL2 activator	TCR activator
Cc1[nH]nc(-c2ccc(O)c(C)c2O)c1-c1cnn(-c2ccccc2)c1	0%[38.3 µM]	-87*	1%	-8%	2	0%
COc1cnn(-c2ccccc2)c(=O)c1N(C)C	13µM*	-4	1%	-13%	0	x
CC(=O)c1ccc(N(CC(=O)NC2CCCC2)C(=O)c2csnn2)cc1	-3%	-82*	0%	-16%	1	0%
O=C(CN(C(=O)c1csnn1)c1ccc(Cl)cc1)NC1CCCC1	-1%	-9	3%	-10%	0	3%
O=C(Nc1ccc(N2CCOCC2)c(S(=O)(=O)Nc2ccccc2Cl)c1)c1ccccc1	1%	-7	0%	x	-1	1%
O=C(Nc1ccc(Cl)cc1)Nc1ccc(N2CCCC2)c(S(=O)(=O)Nc2ccccc2Cl)c1	2.8µM*	5	3%	10%	-2	2%
Cn1c(SCc2ccccc2)nnc1C1CCCN(Cc2cccc3ncccc23)C1 (stereo not given)	0%	x	x	x	x	x
COc1ccc(CCNC(=O)C(C)OC(=O)c2nsc(Cl)c2Cl)cc1OC (stereo not given)	3%	11	1%	-1%	2	3%
COCCNC(=O)C(OC(=O)c1nsc(Cl)c1Cl)C(C)C (stereo not given)	2%	9	18µM*	-2%	-1	-6%
CN1c2cc(Cl)ccc2-c2nc(SCC(=O)Nc3ccc(F)cc3F)ncc2S1(=O)=O	3%	1	32µM*	3%	x	x
Cc1cccc(C)c1NC(=O)CSc1ncc2c(n1)-c1ccc(Cl)cc1N(Cc1ccccc1)S2(=O)=O	1%	18	10µM*	-1%	x	x
Cc1ccc(NC(=O)CSc2ncc3c(n2)-c2ccc(Cl)cc2N(C)S3(=O)=O)cc1F	1%	1	u	-1%	x	x
CCC(=O)O[C@]1(C(=O)COC)[C@@H](C)C[C@H]2[C@@H]3CCC4=CC(=O)C=C[C@]4(C)C3(F)[C@@H](O)C[C@@]21C (stereo not given in full)	x	-31	x	x	x	x
COc1ccccc1NC(=O)Nc1nc(CC(=O)NCc2ccc(F)cc2)cs1	3%	-76*	-2%	x	-6	-3%
COC(=O)c1cc(S(N)(=O)=O)ccc1OC	x	-12	x	x	x	x
COc1cc(=O)n2c(c1C(=O)NC(C)c1ccco1)CCN(Cc1cc(C)ccc1C)CC2 (stereo not given)	-1%	x	x	x	x	x
CCCC[n+]1c(/C=C/c2ccc(N(C)C)cc2)sc2ccccc21	5µM*	x	x	x	x	x
COCC(=O)Nc1cc(C(=O)N2CCN(c3ccccc3)CC2C)c2c(c1)nc(-c1ccncc1)n2C (stereo not given)	1%	x	x	x	x	x
CCCC(O)(c1ccc(CC)cc1)C(CN1CCOCC1)c1ccccc1 (stereo not given)	10%	-62*	-3%	22%	-6	2%
CCc1ccc(C(O)(C(C)C)C(CN2CCOCC2)c2ccccc2)cc1 (stereo not given)	u	-78*	-1%	21%	-2	2%

Part of the list above, limited to PINK1 modulator, IL2 activator and RXFP1 antag:
structure	PINK1 modulator	IL2 activator	RXFP1 antag
Cc1ccc(NC(=O)CSc2ncc3c(n2)-c2ccc(Cl)cc2N(C)S3(=O)=O)cc1F	1%	x	1
CCC(=O)O[C@]1(C(=O)COC)[C@@H](C)C[C@H]2[C@@H]3CCC4=CC(=O)C=C[C@]4(C)C3(F)[C@@H](O)C[C@@]21C (stereo not given in full)	x	x	-31
COc1ccccc1NC(=O)Nc1nc(CC(=O)NCc2ccc(F)cc2)cs1	3%	-6	-76*

Next results follow.
SMILES	PINK1 modulator	RXFP1 antag	RXFP1 agonist	miR-21 reporter	IL2 activator	TCR activator
Cc1ccc(N/C(N)=N/c2nc(C)cc(C)n2)cc1	24%	-6	3%	-10%	-1	1%
Cc1cc(C)nc(/N=C(\N)Nc2ccc(C(C)C)cc2)n1	40µM*	-12	2%	u	-5	10%
c1ccc2c(c1)OC(CCCN1CCCCC1)c1ccccc1S2 (stereo not given)	-2%	u	2%	-10%	-3	-1%[46.1 µM]
CN1CCCC(CC2Oc3ccccc3Sc3ccccc32)C1 (stereo not given)	-4%	-81*	-1%	6%	-5	-5%[46.1 µM]
Oc1[nH]c2ccccc2c1N=Nc1ccccc1	1%	-21	1%	-49%	-3	6%
CC(Oc1ccccc1)C(=O)N=Nc1c(O)[nH]c2ccc([N+](=O)[O-])cc12 (stereo not given)	2%	-84*	1%	1%	-3	8%
Oc1[nH]c2ccccc2c1N=Nc1ccc(F)cc1	1%	-9	1%	-67%	191*	-4%
O=[N+]([O-])c1ccc2[nH]c(O)c(N=Nc3ccc(F)cc3)c2c1	28µM*	4	-2%	2%	6	1%
CCN(CC)S(=O)(=O)c1cc([N+](=O)[O-])ccc1N=Nc1c(O)[nH]c2ccccc12	11µM*	6	3%	-1%	0	-2%[46.1 µM]
O=[N+]([O-])c1ccc(N=Nc2c(O)[nH]c3ccc(F)cc23)cc1	1%	2	6%	-41%	13	2%
COc1cc(CN2CCC3(CC2)c2ccccc2[C@@H](NC(=O)c2ccccc2OC)[C@@H]3O)ccc1F	0%	x	x	x	x	x
COc1cc(OC)c2nc(-c3cc4c(c(OC)c3)OCCN(Cc3cn(C)nc3C)C4)cc(C)c2c1	1%	x	x	x	x	x
Cc1cnc(C(=O)NCc2c(C)ncc3c2CCN(C(=O)/C=C/c2cccs2)C3)cn1	-1%	x	x	x	x	x
O=C(NCC1CCC2(CCN(Cc3cccn3-c3ccc(Cl)cn3)CC2)O1)c1ccccc1 (stereo not given)	0%	x	x	x	x	x
c1ccc(CCNc2nc(-c3ccccn3)nc3ccccc23)cc1	40µM*	-30	1%	u	-4	0%
COC(=O)c1cc(CNC(=O)c2cnsn2)cc(NC(=O)c2ccccc2OC)c1	-1%	x	x	x	x	x
COc1cc(/C=C(/C#N)C(=O)Nc2ccccc2)ccc1OCc1ccc(C(=O)O)cc1	2%	4	-1%	-18%	-2	-4%
COc1cc(/C=C(\C#N)C(=O)Nc2ccc(C(=O)O)cc2)ccc1OC(=O)c1cccc(F)c1	0%	-83*	0%	1%	1	-5%
Cc1ccc(CNC(=O)C2CCN(S(=O)(=O)c3c(C)noc3/C=C/N(C)C)CC2)cc1	1%	-64*	0%	-5%	0	3%
CC(C)c1c(C(=O)N(C)CC2CCCN(C)C2)cnn1-c1nccc(-c2cccs2)n1 (stereo not given)	-1%	x	x	x	x	x
Cc1ccc(C(=O)/C=C/c2ccccc2[N+](=O)[O-])cc1	-2%	-38	0%	-20%	-6	-3%
O=C(/C=C/c1ccccc1[N+](=O)[O-])c1ccccc1Br	-2%	-72*	0%	29%	-1	-5%
Cc1ccc(-c2csc(/C=C3/SC(C)C(=O)N3CC(=O)Nc3ccccc3F)n2)cc1 (stereo not given)	4%	-84*	x	x	-1	2%
O=C1/C(=C/c2ccc(N3CCCC3)cc2)NC(=S)N1C1CC1	u	-28	-2%	-10%	16	2%
